## Measured affinities in a library of Ab-95 light chain variants

Target: peptide PDVDLGDISGINAS, taken from heptad repeat 2 (HR2) of SARS-CoV-2 spike.

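The starting antibody came from a phage panning campaign against this peptide. AAYL52 was designed without a model: most single CDR substitutions and a random sample of double and triple ones. The assay is AlphaSeq: two haploid yeast populations carry antibody and antigen on their surface. Mating (16 h, 30 °C) was followed by selection of diploids and sequencing of their barcodes. The ratio of observed to expected reads was calibrated, replicate by replicate, on BCL2-family standards whose Kd was known from biolayer interferometry. The assay was run in three technical replicates.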

Ab-95 is the parent antibody, in scFv form: VH, then three GGGGS repeats, then VL. The heavy chain is unchanged in all variants.
VH: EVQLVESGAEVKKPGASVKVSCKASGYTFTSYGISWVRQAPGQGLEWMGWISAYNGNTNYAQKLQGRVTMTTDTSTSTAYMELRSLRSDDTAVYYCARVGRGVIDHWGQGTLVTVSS
VL: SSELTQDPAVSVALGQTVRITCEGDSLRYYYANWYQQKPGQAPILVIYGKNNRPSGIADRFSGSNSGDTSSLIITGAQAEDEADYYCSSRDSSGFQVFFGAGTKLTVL

The parent's light chain CDRs are EGDSLRYYYAN, GKNNRPS, SSRDSSGFQVF; each variant's own CDRs replace them letter for letter. Affinities are written as log10 Kd with Kd in nM; a lower number is a better binder. Replicates are averaged; those with no signal do not enter the mean. "ND" marks a missing value. The strain was present, yet no cells mated with the target were sequenced in that replicate, which points to weak or no binding. Three control strains display no target. For library AAYL52, 28% of the pairings with them gave a signal, with a median of 3.91 and one signal in twenty below 2.90, so weak values seen in few replicates may be background. For each scFv, signals with the empty controls are counted beside the result, with their mean in brackets.

| # | CDR-L1 | CDR-L2 | CDR-L3 | replicates, log10 nM | mean log10 Kd (nM) | signal with controls |
|---|---|---|---|---|---|---|
| 1 | FGDSLRYYYAN | GKNNRPS | SSPDSSGFQVF | 3.99 3.80 4.71 | 4.16 | 4/9 (4.08) |
| 2 | EGDSHRYYYAN | GKNNRPS | SSRDSSGFDVF | 4.28 4.30 ND | 4.29 | 3/9 (3.79) |
| 3 | EGDSLRYVYAN | GKNNRPS | MSRDSSGFQVF | 1.85 1.68 1.25 | 1.59 | 3/9 (4.11) |
| 4 | ETDSLCYYYAN | GKNNRPS | SSIDSSGFQVF | 3.94 ND 3.11 | 3.53 | 2/9 (2.97) |
| 5 | EGDSFRYYYAN | GKNNCPS | SSRDSSDFQVF | ND 3.76 4.40 | 4.08 | 3/9 (4.61) |
| 6 | EGDILRYQYAN | GKNNRPS | SSHDSSGFQVF | 1.71 1.62 0.98 | 1.44 | 2/9 (3.71) |
| 7 | EGDSLRYYYAN | GKNHFPS | ISRDSSGFQVF | 3.46 ND ND | 3.46 | 0/9 |
| 8 | EGDSLVYYYAN | GKNNLPS | SSRDSSGFQVF | 3.94 3.45 3.95 | 3.78 | 1/9 (3.51) |
| 9 | EGQSARYYYAN | WKNNRPS | SSRDSSGFQVF | 3.30 ND 4.25 | 3.78 | 3/9 (4.20) |
| 10 | LGDSLQYYHAN | GKNNRPS | SSRDSSGFQVF | 2.24 2.26 2.20 | 2.23 | 4/9 (4.19) |
| 11 | EGDSLVYYYAN | GKNNRAS | SSRDSSGFQVF | 2.80 2.72 2.62 | 2.71 | 6/9 (4.11) |
| 12 | EGDSLRYYYHN | QKNNRPL | SSRDSSGFQVF | ND ND ND | ND | 3/9 (3.51) |
| 13 | EIDSLRYYDAN | GKVNRPS | SSRDSSGFQVF | 2.23 2.32 1.46 | 2.00 | 3/9 (4.24) |
| 14 | EGDSMRYYYAN | GKPNRPS | SSRDSSGFQVS | ND 3.37 ND | 3.37 | 2/9 (3.44) |
| 15 | LGDSLRYYSAN | GTNNRPS | SSRDSSGFQVF | 1.84 1.71 1.65 | 1.73 | 2/9 (3.65) |
| 16 | EMDSLRYYYAR | GKNNRPS | QSRDSSGFQVF | 3.96 ND 3.35 | 3.66 | 2/9 (3.42) |
| 17 | EGDSLRYYYAN | GKNNRTS | SSRDSSGFSVF | 5.13 2.58 3.44 | 3.72 | 2/9 (4.24) |
| 18 | EVDSLRYTYAN | RKNNRPS | SSRDSSGFQVF | 3.83 ND ND | 3.83 | 2/9 (4.09) |
| 19 | ESDSLRYYYAN | GKNNRES | SSFDSSGFQVF | ND 3.96 ND | 3.96 | 1/9 (2.84) |
| 20 | ESDSLRYYYAN | GKNNRSS | SSRDSSGFQVF | 3.29 3.84 3.83 | 3.65 | 5/9 (4.51) |
| 21 | EGTSLRYYHAN | GKNRRPS | SSRDSSGFQVF | 3.07 3.37 3.06 | 3.17 | 5/9 (3.96) |
| 22 | EGDSLRYYIAN | GKNNRPS | SSRHSIGFQVF | 3.52 5.64 ND | 4.58 | 1/9 (2.51) |
| 23 | EGDSLRWYYAN | GKNNRPS | SRRDSPGFQVF | 5.94 ND 3.41 | 4.68 | 6/9 (4.07) |
| 24 | EGDSLRYHNAN | GKNNRPS | SSRDSYGFQVF | 1.78 1.58 1.20 | 1.52 | 1/9 (3.94) |
| 25 | EGDSLRYYYAN | LKANRPS | SSRDSSGTQVF | ND 2.30 ND | 2.30 | 0/9 |
| 26 | EGDSLRYYYAS | GKNNVPS | SSRDMSGFQVF | 3.84 3.79 ND | 3.82 | 4/9 (3.55) |
| 27 | EGDSLRYYYAV | GKNNRPS | SSRDSFGTQVF | ND 3.78 ND | 3.78 | 1/9 (4.33) |
| 28 | EGDSLRYYYHY | GKENRPS | SSRDSSGFQVF | 3.64 ND 3.04 | 3.34 | 2/9 (3.29) |
| 29 | EGDSLSYYYAN | GKNQRPS | SSRYSSGFQVF | 2.87 2.92 2.55 | 2.78 | 4/9 (4.06) |
| 30 | EGDSLRYYYKN | GINNRPS | SSRKSSGFQVF | ND 5.58 ND | 5.58 | 0/9 |
| 31 | YGDSLRYYYAN | PKNNRPS | SSRYSSGFQVF | 4.27 4.04 ND | 4.15 | 1/9 (3.79) |
| 32 | EGDSLRYYYGN | GKNNRGI | SSRDSSGFQVF | 2.98 2.35 4.13 | 3.15 | 1/9 (4.78) |
| 33 | IGDSLRYYYAN | GKNNRPS | SSRDSFGFQVF | 2.74 2.58 2.32 | 2.55 | 1/9 (3.45) |
| 34 | IGDSLRYYYAN | GKNNRPS | SSRLKSGFQVF | ND 3.35 ND | 3.35 | 2/9 (4.00) |
| 35 | GGDCLRYYLAN | GKNNRPS | SSRDSSGFQVF | ND ND ND | ND | 2/9 (3.46) |
| 36 | EGDSYRYYYAN | GKNNRPS | SSRDSVGFQVF | ND 4.00 ND | 4.00 | 0/9 |
| 37 | EGDSLRYGYAN | GKNNNPS | SSSDSSGFQVF | 3.71 ND ND | 3.71 | 2/9 (3.51) |
| 38 | EGDSLRYYYAN | GKNNRTS | ASRDSSGFQVF | 3.85 3.53 4.10 | 3.83 | 1/9 (3.75) |
| 39 | EGDSLRMYYAN | GKNGRPS | MSRDSSGFQVF | 2.97 2.50 2.16 | 2.54 | 5/9 (3.63) |
| 40 | EGDSLRYYYRN | GKNMRPS | SSDDSSGFQVF | 3.91 4.58 4.91 | 4.47 | 5/9 (4.19) |
| 41 | PGDSLRYYYAN | GKNNRPS | SSSDISGFQVF | 3.21 3.77 4.10 | 3.69 | 2/9 (4.20) |
| 42 | EGDSLRYYYAN | GKNRRAS | SSRDSSGKQVF | ND ND ND | ND | 0/9 |
| 43 | EGDSLRYYYAN | GKNNQCS | RSRDSSGFQVF | ND 3.39 ND | 3.39 | 2/9 (3.48) |
| 44 | EGDSWDYYYAG | GKNNRPS | SSRDSSGFQVF | ND ND ND | ND | 1/9 (4.15) |
| 45 | EGTSLRYYYAT | FKNNRPS | SSRDSSGFQVF | 3.11 5.49 4.17 | 4.26 | 4/9 (3.52) |
| 46 | EGDTLRYYYAN | GKNFRPS | SSRDSSGFQVF | 4.31 4.82 4.01 | 4.38 | 1/9 (4.68) |
| 47 | EGDSLRYYYAD | GKKNLPS | SSRDSSGFQVF | 5.09 4.33 ND | 4.71 | 2/9 (3.80) |
| 48 | EGDSLRYYYAH | GKNNRPF | SSKDSSGFQVF | ND ND ND | ND | 4/9 (4.21) |
| 49 | EGDSLRYSYAN | GKNNRPS | FSRDSCGFQVF | 1.12 1.23 0.41 | 0.92 | 2/9 (3.62) |
| 50 | EGDSLAIYYAN | GKNNRPF | SSRDSSGFQVF | ND ND ND | ND | 2/9 (3.61) |
| 51 | EGDSLRMYYRN | GKNNRPS | SSRDSSGKQVF | 2.62 3.35 2.62 | 2.86 | 0/9 |
| 52 | EGDSLRYYYAN | GKNRRSS | SSRDSSYFQVF | 3.91 3.29 2.76 | 3.32 | 6/9 (3.61) |

The closing 8 entries, repeated:

CDR-L1	CDR-L2	CDR-L3	replicates, log10 nM	mean log10 Kd (nM)	signal with controls
EGTSLRYYYAT	FKNNRPS	SSRDSSGFQVF	3.11 5.49 4.17	4.26	4/9 (3.52)
EGDTLRYYYAN	GKNFRPS	SSRDSSGFQVF	4.31 4.82 4.01	4.38	1/9 (4.68)
EGDSLRYYYAD	GKKNLPS	SSRDSSGFQVF	5.09 4.33 ND	4.71	2/9 (3.80)
EGDSLRYYYAH	GKNNRPF	SSKDSSGFQVF	ND ND ND	ND	4/9 (4.21)
EGDSLRYSYAN	GKNNRPS	FSRDSCGFQVF	1.12 1.23 0.41	0.92	2/9 (3.62)
EGDSLAIYYAN	GKNNRPF	SSRDSSGFQVF	ND ND ND	ND	2/9 (3.61)
EGDSLRMYYRN	GKNNRPS	SSRDSSGKQVF	2.62 3.35 2.62	2.86	0/9
EGDSLRYYYAN	GKNRRSS	SSRDSSYFQVF	3.91 3.29 2.76	3.32	6/9 (3.61)

For reference, the parent read 2.31 as the reference entry and 2.25 as a member of this library.

Reference: Engelhart et al. 2022, doi:10.1038/s41597-022-01779-4. File: FLAb, binding data.